# Assay results: patent US20180258123A1, “Suppressors of Premature Termination Codons as Therapeutics and Methods for Their Use” (The University of British Columbia, priority 2015, published 2018)
# Experiments:
# [1] = test system: HDQ-P1 cells homozygous for TGA (R213X) in exon 6 of the TP53 gene; experiment: Automated p53 immunofluorescence 96-well plate assay (PTC read-through); assay type: cell-based, human; conditions: HDQ-P1, 72 h, concentrations tested did not exceed 200 μM
# [2] = test system: HDQ-P1 cells homozygous for TGA (R213X) in exon 6 of the TP53 gene; experiment: Automated electrophoresis western analysis of full-length and truncated p53; assay type: cell-based, human; conditions: 3 mM
# [3] = test system: NCI-H1299 tumour xenografts stably expressing TP53 R213X (TGA); experiment: Induction of PTC readthrough in vivo in tumour xenograft (FIG. 8); design: species or system mice; conditions: intraperitoneal; 5 consecutive days (FIG. 8A) or once at 200 and 400 mg/kg (FIG. 8B)
Compound,"PTC read-through activity, 96-well plate assay (FIG. 2) [1]",PTC read-through activity by western analysis (FIG. 3A) [2],PTC readthrough (full-length p53) in tumour xenograft [3]
CNC[C@@H]1CC[C@@H](N)[C@@H](O[C@H]2[C@H](O)[C@@H](O[C@H]3OC[C@](C)(O)[C@H](NC)[C@H]3O)[C@H](N)C[C@@H]2N)O1 [Gentamicin C2b],no activity whatsoever,,
CN[C@@H]1[C@@H](O)[C@@H](O[C@@H]2[C@@H](O)[C@H](O[C@H]3O[C@H]([C@@H](C)NC)CC[C@H]3N)[C@@H](N)C[C@H]2N)OC[C@]1(C)O [Gentamicin C1],no activity whatsoever,,
CN[C@@H]1[C@@H](O)[C@@H](O[C@@H]2[C@@H](O)[C@H](O[C@H]3O[C@H]([C@@H](C)N)CC[C@H]3N)[C@@H](N)C[C@H]2N)OC[C@]1(C)O [Gentamicin C2],no activity whatsoever,,
CN[C@@H]1[C@@H](O)[C@@H](O[C@@H]2[C@@H](O)[C@H](O[C@H]3O[C@H](CN)[C@@H](O)[C@H](O)[C@H]3O)[C@@H](N)C[C@H]2N)OC[C@]1(C)O [Gentamicin B],no activity whatsoever,,
CN[C@@H]1[C@@H](O)[C@@H](O[C@@H]2[C@@H](O)[C@H](O)[C@@H](N)C[C@H]2N)OC[C@]1(C)O [garamine],no activity whatsoever,,
CN[C@@H]1[C@@H](O)[C@@H](O[C@@H]2[C@@H](O)[C@H](O[C@H]3O[C@H]([C@H](C)N)CC[C@H]3N)[C@@H](N)C[C@H]2N)OC[C@]1(C)O [Gentamicin C2a],no activity whatsoever,,
CN[C@@H]1[C@@H](O)[C@@H](O[C@@H]2[C@@H](O)[C@H](O[C@H]3O[C@H](CO)[C@@H](O)[C@H](O)[C@H]3N)[C@@H](N)C[C@H]2N)OC[C@H]1O [Gentamicin A],no activity whatsoever,,
Gentamicin,did not induce PTC read-through,active,no readthrough was detected
